Fewer than 10 of roughly 290,000 compounds were called active. Only results without a clear call are listed here; the source files them as inconclusive. The call rests on the fitted dose curve; in most records, active means well fitted curve in the direction sought with a large enough effect in the polarisation (not every such curve was filed as active); inconclusive means small, poorly fitted or top-dose-only effect, or effect the other way, or a change in a side signal; inactive means no such curve, though single readings can be large or run the other way; the % refers to the polarisation.
Assay: qHTS Assay for Inhibitors Targeting the Menin-MLL Interaction in MLL Related Leukemias: Competition With Fluorescein Labeled MLL-derived Peptide
Details: Fluorescence polarization, fluorescein-MLL peptide displacement from menin

SMILES	Potency
Nc1cccc2c([As](=O)(O)O)cccc12	inconclusive: 11.2 µM
CS(=O)(=O)c1cc([N+](=O)[O-])c2no[n+]([O-])c2c1	inconclusive: 15.8 µM
NC(=O)Nc1ccc([As](=O)(O)O)cc1	inconclusive: 39.8 µM
CN(C(=O)Cc1ccc(Cl)c(Cl)c1)[C@H]1CCCC[C@@H]1N1CCCC1	inconclusive: 39.8 µM
CC1CCN(C(=O)Oc2c(Cl)cc(Cl)c3cccnc23)CC1	inconclusive: 8.91 µM
